From publication PMC12155096 (International Journal of Molecular Sciences, 2025)

The chains behind the UniProt entries cited, without tags or fusion partners.
UniProt P08684, whole entry: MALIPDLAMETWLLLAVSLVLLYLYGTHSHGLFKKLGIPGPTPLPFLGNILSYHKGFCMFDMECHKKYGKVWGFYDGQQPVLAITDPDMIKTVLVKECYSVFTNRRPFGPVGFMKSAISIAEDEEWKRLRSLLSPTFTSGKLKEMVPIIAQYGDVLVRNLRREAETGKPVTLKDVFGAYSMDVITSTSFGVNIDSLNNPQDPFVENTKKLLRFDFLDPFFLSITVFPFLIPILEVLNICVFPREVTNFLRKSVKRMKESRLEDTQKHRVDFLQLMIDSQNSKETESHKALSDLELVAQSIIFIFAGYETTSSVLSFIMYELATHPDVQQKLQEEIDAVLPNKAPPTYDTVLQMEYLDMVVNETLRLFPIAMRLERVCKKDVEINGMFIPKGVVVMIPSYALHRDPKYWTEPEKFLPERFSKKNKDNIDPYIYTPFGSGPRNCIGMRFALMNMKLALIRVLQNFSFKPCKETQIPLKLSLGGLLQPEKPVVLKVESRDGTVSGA
UniProt P33261, whole entry: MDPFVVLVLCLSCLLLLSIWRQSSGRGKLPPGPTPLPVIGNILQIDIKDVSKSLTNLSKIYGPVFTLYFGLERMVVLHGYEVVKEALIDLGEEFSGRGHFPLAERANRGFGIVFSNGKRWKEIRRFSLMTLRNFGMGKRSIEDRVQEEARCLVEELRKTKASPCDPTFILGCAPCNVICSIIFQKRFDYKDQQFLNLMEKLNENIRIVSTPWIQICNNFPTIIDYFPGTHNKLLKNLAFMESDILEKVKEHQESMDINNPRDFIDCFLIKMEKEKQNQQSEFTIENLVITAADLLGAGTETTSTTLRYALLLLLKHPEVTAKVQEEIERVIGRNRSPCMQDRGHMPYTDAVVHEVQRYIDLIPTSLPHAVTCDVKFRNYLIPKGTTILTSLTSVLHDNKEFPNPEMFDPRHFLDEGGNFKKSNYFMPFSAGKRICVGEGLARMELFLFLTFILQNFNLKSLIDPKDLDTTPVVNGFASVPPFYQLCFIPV
UniProt P05177, whole entry: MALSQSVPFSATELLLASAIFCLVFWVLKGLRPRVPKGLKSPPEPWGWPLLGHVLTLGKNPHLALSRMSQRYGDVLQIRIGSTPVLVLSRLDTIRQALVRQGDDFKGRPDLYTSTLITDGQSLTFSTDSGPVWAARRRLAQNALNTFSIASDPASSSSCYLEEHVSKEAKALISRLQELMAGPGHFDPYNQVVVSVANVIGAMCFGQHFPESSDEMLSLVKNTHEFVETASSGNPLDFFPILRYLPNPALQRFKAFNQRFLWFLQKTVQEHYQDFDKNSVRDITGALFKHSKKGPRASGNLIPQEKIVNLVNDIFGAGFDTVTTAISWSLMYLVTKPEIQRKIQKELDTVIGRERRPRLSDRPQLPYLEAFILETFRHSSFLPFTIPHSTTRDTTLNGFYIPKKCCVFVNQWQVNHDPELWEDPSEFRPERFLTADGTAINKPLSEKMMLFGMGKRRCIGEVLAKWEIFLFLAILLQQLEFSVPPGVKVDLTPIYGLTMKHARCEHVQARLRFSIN
UniProt P10635, whole entry: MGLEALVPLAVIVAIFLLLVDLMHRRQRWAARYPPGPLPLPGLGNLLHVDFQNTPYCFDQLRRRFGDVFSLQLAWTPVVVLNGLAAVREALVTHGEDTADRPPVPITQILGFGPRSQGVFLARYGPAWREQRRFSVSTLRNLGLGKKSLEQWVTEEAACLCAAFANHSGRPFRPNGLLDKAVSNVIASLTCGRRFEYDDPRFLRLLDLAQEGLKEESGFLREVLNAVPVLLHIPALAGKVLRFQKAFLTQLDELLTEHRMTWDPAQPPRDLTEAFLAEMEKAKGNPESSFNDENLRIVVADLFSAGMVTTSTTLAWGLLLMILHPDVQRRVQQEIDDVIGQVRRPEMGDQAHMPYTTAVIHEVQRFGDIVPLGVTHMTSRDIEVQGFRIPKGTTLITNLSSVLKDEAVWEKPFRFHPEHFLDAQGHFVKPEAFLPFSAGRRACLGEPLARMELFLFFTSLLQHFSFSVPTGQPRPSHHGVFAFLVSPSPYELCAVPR
UniProt P11712, whole entry: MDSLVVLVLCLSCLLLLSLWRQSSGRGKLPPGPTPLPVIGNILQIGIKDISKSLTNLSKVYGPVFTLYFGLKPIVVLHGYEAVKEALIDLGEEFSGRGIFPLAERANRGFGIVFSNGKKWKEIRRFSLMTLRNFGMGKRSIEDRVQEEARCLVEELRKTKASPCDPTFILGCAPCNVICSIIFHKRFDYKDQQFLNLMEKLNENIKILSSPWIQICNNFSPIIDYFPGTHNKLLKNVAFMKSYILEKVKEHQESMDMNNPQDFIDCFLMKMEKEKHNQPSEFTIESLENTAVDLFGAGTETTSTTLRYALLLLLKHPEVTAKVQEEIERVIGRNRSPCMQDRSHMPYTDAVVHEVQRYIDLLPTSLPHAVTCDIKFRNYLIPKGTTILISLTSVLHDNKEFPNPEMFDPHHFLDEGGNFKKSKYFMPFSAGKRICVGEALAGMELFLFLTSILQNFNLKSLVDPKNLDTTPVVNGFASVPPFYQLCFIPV

Columns and labels:
[1] = molecular target: CYP3A4 (Homo sapiens, UniProt P08684)
[2] = molecular target: human CYP2C19 (Homo sapiens, UniProt P33261)
[3] = molecular target: human CYP1A2 (Homo sapiens, UniProt P05177)
[4] = molecular target: human CYP2D6 (Homo sapiens, UniProt P10635)
[5] = molecular target: human CYP2C9 (Homo sapiens, UniProt P11712)

| Substance | CYP3A4 Efficacy (in parenthesis) [1] | CYP2C19 Efficacy (in parenthesis) [2] | IC50 [2] [µM] | CYP1A2 Efficacy (in parenthesis) [3] | IC50 [3] [µM] | CYP2D6 Efficacy (in parenthesis) ([4]; human) | IC50 ([4]; human) [µM] | CYP2C9 Efficacy (in parenthesis) [5] | IC50 [5] [µM] | IC50 ([1]; read-out: CYP3A4 IC50) [µM] | IC50 ([4]; read-out: CYP2D6 IC50) [µM] |
| --- | --- | --- | --- | --- | --- | --- | --- | --- | --- | --- | --- |
| Diniconazole | 0.26 ± 0.04 (-85 ± 1) % | 0.04 ± 0.01 (-120 ± 17) % | 0.04 | 39.92 ± 2.7 (-100 ± 7) % | 39.9 | 38.89 ± 8.14 (-106 ± 9) % | 38.9 | 5.25 ± 0.72 (-104 ± 5) % | 5.25 |  |  |
| Kadethrin |  |  |  |  |  |  |  |  |  | 2.45 | 34.6 |

Where two headings read alike, the source gives them in different places.
